Shown are actives, neighbours in structure and some others; about 1.5% of the full set was active somewhere.
UUG fidelity: modulators of start codon recognition fidelity in yeast; S. cerevisiae UUG-firefly luciferase reporter, luminescence/redox ratio; AID 602363; 350,000 tested, 0.13% active; activity score, % at 18.7 µM;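 active = replicate mean at a twofold rise or more, about +100% in these data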;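 also: firefly luciferase made from a UUG start codon reports start codon fidelity; reporter light over untreated wells divided by growth signal over untreated wells; some hits fall short of that in this replicate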
RAD54 inh: inhibitors of human RAD54 branch migration, primary screen, biochemical, fluorescence, single point | hit rate 0.14% among 360,000 | inhibition, % at 10.4 µM | DNA repair and recombination protein RAD54-like (Homo sapiens), Q92698 | RAD54 Holliday junction branch migration, FAM/BHQ fluorescence;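 active = mean normalized replicate activity at least 40 and at least half of replicates scoring 40 or more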;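 also: 0% = median of neutral control wells and 100% = median of positive control wells; inhibitors cause a drop in the FAM fluorescence signal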
RAD52 inh: RAD52 DNA annealing inhibitors, primary screen, biochemical, FRET, single point, set 2 | DNA repair protein RAD52 homolog (Homo sapiens), P43351 | inhibition, % at 18.7 µM | hit rate 0.46% among 360,000 | recombinant RAD52 DNA annealing, FRET fluorescence;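 active = every replicate showing at least 50% inhibition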
Casp6 inh: human caspase-6 inhibitors, primary screen, biochemical, VEID-R110 fluorescence, single point, set 2. P55212. hit rate 0.53% among 350,000. AID 686996, 2013. purified caspase-6, Z-VEID-R110 cleavage fluorescence. inhibition, % at 12.5 µM;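 active = mean inhibition across replicates at least about 35%, with every replicate also reaching that limit, limit read from the data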;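 also: 0% = median of neutral control wells and 100% = no fluorescence left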
PglD DTNB: C. jejuni PglD acetyltransferase inhibitors, primary screen, biochemical, DTNB colorimetric, single point; purified PglD enzyme, DTNB colorimetric CoA detection; inhibition, % at 12.5 µM; hit rate 0.098% among 360,000; AID 602405, 2012; in the data active = inhibition above about 16%, passing the limit was not always enough
INS-1E GSIS act: GLuc luminescence reporter in INS-1E cells, primary screen for activators of glucose-dependent secretion of insulin | INS-1E GLuc reporter insulin secretion, 2-3 h | activation, % at 16.6 µM | hit rate 0.61% among 370,000 | AID 743287, 2014;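 active = lowest replicate activation of at least 40%, so every replicate reaches that level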;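 also: 0% = median of neutral control wells and 100% = median of IBMX positive control wells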
RAD52 DNA ctr: DNA-binding compounds via dye displacement, dose response, artefact control for RAD52 inhibitor project, biochemical, fluorescence polarization, cherry-pick; AID 652128, 2013; hit rate 8% among 1,000; shares compounds with RAD52 inh; AC50, µM; Salmon sperm DNA/acridine orange FP displacement;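 active = fitted half-maximal concentration for signal loss at or below twice the highest dose tested, in every separate run, actives reach about 64 µM in these data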
CASP1 counter: human caspase-1 inhibitors, dose response, selectivity assay for caspase-6 inhibitor project, biochemical, Z-YVAD-R110 fluorescence, cherry-pick, set 2 | activity change, negative = inhibition, % at 35 µM | shares compounds with Casp6 inh | AID 743289, 2014 | purified caspase-1, Z-YVAD-R110 cleavage fluorescence | 100 tested, under 10 active;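 active = compounds lowering fluorescence whose fitted half-maximal concentration is no more than twice their top tested dose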
* = called active by the depositor; i = inactive; x = no result given.

A first look, two compounds:
SMILES	UUG fidelity	RAD54 inh	RAD52 inh	Casp6 inh	PglD DTNB	INS-1E GSIS act	CASP1 counter	others
O=C(NCCc1ccc(Cl)cc1)c1cc(=O)[nH]c2ccccc12	-16	-5	-17	-2	-3	6	x
CN(C)CCCNc1cc(O)c2ncccc2c1	21	-1	70*	87*	-7	-24	6	RAD52 DNA ctr=i

The list itself (from the top)
SMILES	UUG fidelity	RAD54 inh	RAD52 inh	Casp6 inh	PglD DTNB	INS-1E GSIS act	CASP1 counter	others
O=C(NCCc1ccc(Cl)cc1)c1cc(=O)[nH]c2ccccc12	-16	-5	-17	-2	-3	6	x
CN(C)CCCNc1cc(O)c2ncccc2c1	21	-1	70*	87*	-7	-24	6	RAD52 DNA ctr=i
COc1cc(NCCCCCCCN)c2ncccc2c1	-13	-1	x	x	0	x	x
COc1cc(NC(C)CCCN)c2ncccc2c1 (configuration not stated)	-53	27	84*	91*	-7	x	1	RAD52 DNA ctr=i
CCN(CC)CCC(=O)c1ccc(F)cc1	x	x	-9	-1	x	4	x
Cc1cc(C=O)c(C)n1-c1cc(C(=O)O)cc(C(=O)O)c1	x	x	-15	41*	x	9	7
Cc1cc(C=O)c(C)n1-c1cccc(C(=O)O)c1	x	x	-19	33	x	-2	x
CC[C@H](CO)Oc1cc(NCc2cccc(N)c2)c2ncn(C(C)C)c2c1	x	x	16	46*	x	7	-4
COCCN(C(=O)COC(=O)c1cc2c(s1)CCC2)c1c(N)n(Cc2ccccc2)c(=O)[nH]c1=O	0	-5	-25	80*	6	-17	-1
CCC1CCc2sc(C(=O)OCC(=O)N(CCOC)c3c(N)n(Cc4ccccc4)c(=O)[nH]c3=O)cc2C1 (configuration not stated)	-9	-5	-19	-1	-3	-24	x
O=c1oc2cc(O)c(Cl)cc2c2ccccc12	-11	4	x	x	8	-1	x
O=c1cc2c(=O)oc3cc(O)c(O)oc3c2c(O)c1O	-14	-17	-17	95*	-3	6	-8
COc1cc(N(C(C)=O)c2ccc(O)c(C(=O)O)c2)c2ncccc2c1	-13	-15	-14	44*	2	18	-2
Cc1c(CC(=O)NCC(=O)O)c(=O)oc2cc3occ(-c4ccccc4)c3cc12	-8	-16	-15	-2	12	12	x
Cc1ccc(S(=O)(=O)Nc2cc(C)c(O)cc2C)cc1	x	x	-6	x	x	8	x
Cc1ccc(S(=O)(=O)Nc2csc(C)c2C(=O)O)cc1	x	x	-29	61*	x	10	-3
O=C(COC(=O)c1ccc([N+](=O)[O-])s1)Nc1cccc(S(=O)(=O)NC2=NCCCCC2)c1	x	x	-11	98*	x	x	13
Cc1ccc(C(=O)OCc2nnc(-c3ccccc3)o2)s1	-7	6	-4	1	3	-11	x
CC(C)(C)c1ccc(NC(=O)COC(=O)c2ccc([N+](=O)[O-])s2)cc1	6	-3	x	x	3	-26	-9
O=C(COC(=O)c1ccc([N+](=O)[O-])s1)Nc1ccc(F)cc1	-19	-1	3	98*	1	-24	2
O=C(COC(=O)c1ccc([N+](=O)[O-])s1)Nc1ccc(Cl)cn1	x	x	-17	6	x	-3	x
O=C(OCc1nnc(-c2ccccc2)o1)c1ccc([N+](=O)[O-])s1	-1	5	-14	99*	2	-19	1
CC(=O)c1ccc(S(=O)(=O)Nc2ccc(C(=O)NC3CC3)cc2)cc1	-28	3	-4	15	1	3	x
O=C(COC(=O)c1ccc([N+](=O)[O-])s1)Nc1ccccc1	-4	9	x	x	8	-13	0
O=C(COC(=O)c1ccc([N+](=O)[O-])s1)NCc1ccccc1	-3	-1	x	x	0	9	x

Three entries out of the list, ordered by length of the SMILES, lowest first:
SMILES	UUG fidelity	RAD54 inh	RAD52 inh	Casp6 inh	PglD DTNB	INS-1E GSIS act	CASP1 counter	others
CN(C)CCCNc1cc(O)c2ncccc2c1	21	-1	70*	87*	-7	-24	6	RAD52 DNA ctr=i
O=C(COC(=O)c1ccc([N+](=O)[O-])s1)NCc1ccccc1	-3	-1	x	x	0	9	x
COCCN(C(=O)COC(=O)c1cc2c(s1)CCC2)c1c(N)n(Cc2ccccc2)c(=O)[nH]c1=O	0	-5	-25	80*	6	-17	-1

The listing continues:
SMILES	UUG fidelity	RAD54 inh	RAD52 inh	Casp6 inh	PglD DTNB	INS-1E GSIS act	CASP1 counter	others
O=C(C[C@H]1CC[C@H]2[C@@H](COC[C@@H](O)CN2C(=O)c2cnccn2)O1)NCc1ccc(Cl)cc1	-12	0	3	0	-1	4	x
[O-][n+]1onc2c1CCc1c-2nn(-c2ccccc2Cl)[n+]1[O-]	x	x	-8	82*	x	4	-1
Cc1ccc(-n2nc3c([n+]2[O-])CCc2c-3no[n+]2[O-])cc1	-12	1	x	x	2	x	x
C=CCNC(=O)c1onc(CSc2cc(C)cc(C)c2)c1C(=O)NCC=C	0	-8	x	x	0	-27	x
CCOc1c(O)ccc(/C=C2\SC(=S)NC2=O)c1[N+](=O)[O-]	x	x	-24	61*	x	-41	9
C/C(CC(=O)N1CCCC1)=N\NC(=O)c1cc2ccccc2cc1O	x	x	3	39*	x	-16	13
COc1ccc2c3c([nH]c2c1)[C@@H](CO)N(Cc1ccccc1OC)CC31CN(S(C)(=O)=O)C1	x	x	x	x	x	5	x
CC1CC(C)CN(CCCNS(=O)(=O)c2ccc3c(c2)CCN3C(=O)C2CC2)C1 (configuration not stated)	1	-1	-23	9	-2	-1	x
O=c1c(O)cccc2cc(O)c(O)c(O)c12	-35	x	3	98*	2	4	-10
Cc1cc(C)nc(N2CCN(c3nc(-c4ccccc4)nc4c3oc3ccccc34)CC2)n1	x	x	-4	-1	x	32	x
O=C(Nc1ccc2nc3n(c(=O)c2c1)CCCCC3)c1cc([N+](=O)[O-])ccc1F	-4	4	-3	7	-3	9	x
O=C(Nc1ccc2nc3n(c(=O)c2c1)CCCCC3)c1c(F)ccc([N+](=O)[O-])c1F	-16	-7	-13	60*	-3	-36	14
C[C@H](CO)N1C[C@H](C)[C@H](CN(C)S(=O)(=O)c2ccc(F)cc2)Oc2cc(Br)ccc2S1(=O)=O	2	-2	17	0	-3	-24	x
O=C1NC(=O)C(=Cc2ccccc2[N+](=O)[O-])S1	-26	2	-15	67*	2	-6	4
Cc1ccc(C2=NC(C)(C)N=C2SCC(=O)Nc2ccc(Cl)cc2)cc1	-1	0	x	x	-2	x	x
Cn1cnnc1SCC(=O)Nc1ncc([N+](=O)[O-])s1	-10	1	-25	39*	-5	-7	-4
O=C(CC(F)(F)F)N1C[C@H]2[C@@H](c3ccccc31)[C@@H](CO)N2C(=O)CN1CCOCC1	1	2	-4	-2	-3	-2	x
O=C(Nc1ccc(S(=O)(=O)Nc2cnc3ccccc3n2)cc1)c1ccc(Cl)c([N+](=O)[O-])c1	-3	3	-31	62*	2	0	-4

Among those listed so far, these have a furan ring, fused or not.
SMILES	UUG fidelity	RAD54 inh	RAD52 inh	Casp6 inh	PglD DTNB	INS-1E GSIS act	CASP1 counter	others
Cc1c(CC(=O)NCC(=O)O)c(=O)oc2cc3occ(-c4ccccc4)c3cc12	-8	-16	-15	-2	12	12	x
Cc1cc(C)nc(N2CCN(c3nc(-c4ccccc4)nc4c3oc3ccccc34)CC2)n1	x	x	-4	-1	x	32	x
